Where “and” joins values, the source holds several entries; their conditions need not be identical. Equal entries are not always repeated.
Assay: single dose pharmacokinetic study LYN-190-BUP, intravenous bolus
Conditions: 0.03 mg/kg iv, analyte buprenorphine

Substance: Buprenorphine HCL
- extrapolated initial plasma concentration (CO): 17.3 ng/mL
- AUCinf (Mean, 4 monkeys): 25.4 ng·h/mL
- AUClast (Mean, 4 monkeys): 24.7 ng·h/mL
- Half-life (terminal phase t½) (Mean, 4 monkeys): 1.62 h
- Tlast (individual animals): 8 h
- AUCinf (individual animals, HCL): 21.5 ng·h/mL and 28.7 ng·h/mL and 28.0 ng·h/mL and 23.6 ng·h/mL
- AUClast (individual animals, HCL): 20.9 ng·h/mL and 28.0 ng·h/mL and 27.3 ng·h/mL and 22.5 ng·h/mL
- Half-life (individual animals, HCL): 1.82 h and 1.47 h and 1.64 h and 1.57 h
- Tmax (individual animals, HCL): 0.083 h and 0.250 h
- Tlast (listed as Mean, 4 monkeys): 8 h
- Tmax (listed as Mean, 4 monkeys): 0.083 h

From patent US20240252483A1, “GASTRIC RESIDENCE SYSTEMS COMPRISING BUPRENORPHINE AND NALOXONE” (Lyndra Therapeutics, Inc., priority 2021, published 2024)
